Data as given in US20200339655A1, “METHODS FOR PRODUCING A MHC MULTIMER” (priority 2017, published 2020).

Amino acid sequences for entries named in this document (tags omitted). Residues count along the entry.
UniProt P01901, 22-295 limits assumed: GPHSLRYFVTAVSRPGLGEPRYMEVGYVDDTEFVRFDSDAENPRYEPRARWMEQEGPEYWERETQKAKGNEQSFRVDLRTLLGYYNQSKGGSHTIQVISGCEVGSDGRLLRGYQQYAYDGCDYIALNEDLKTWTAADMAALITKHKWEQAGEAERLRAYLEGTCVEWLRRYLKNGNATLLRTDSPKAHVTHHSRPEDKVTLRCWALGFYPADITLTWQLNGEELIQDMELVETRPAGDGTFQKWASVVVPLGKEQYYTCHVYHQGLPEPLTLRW
UniProt P01901, 22-369 limits assumed: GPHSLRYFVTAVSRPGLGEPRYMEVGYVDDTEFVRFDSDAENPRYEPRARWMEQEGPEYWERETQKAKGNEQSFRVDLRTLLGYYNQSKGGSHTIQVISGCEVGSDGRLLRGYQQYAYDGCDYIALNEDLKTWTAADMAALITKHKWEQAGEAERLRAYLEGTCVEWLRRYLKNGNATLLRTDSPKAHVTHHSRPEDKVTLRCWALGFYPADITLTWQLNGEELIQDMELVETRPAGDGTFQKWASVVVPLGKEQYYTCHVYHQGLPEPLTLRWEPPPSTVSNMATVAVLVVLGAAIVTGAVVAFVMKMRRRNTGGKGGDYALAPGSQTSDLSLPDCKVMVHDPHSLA

Columns and labels:
[1] = test system: SIINFEKL-specific OT-I T cells; test: MHC I multimer staining of OT-I splenocytes (flow cytometry); conditions: exchange 30 min at room temperature
H-2K^b [2] = molecular target: T1, H-2K^b (Mus musculus, UniProt P01901); test: Temperature-mediated peptide exchange on H-2K^b analyzed by gel filtration HPLC; assay type: binding; conditions: H-2K^b-FAPGNAPAL
H-2K^b [3] = molecular target: T1, H-2K^b
H-2K^b [4] = molecular target: T1, H-2K^b; conditions: affinity to H-2K^b, published evidence; cited from earlier work

SMILES: CC(C)C[C@H](NC(=O)[C@H](C)NC(=O)[C@@H]1CCCN1C(=O)[C@H](Cc1ccc(O)cc1)NC(=O)[C@H](CC(N)=O)NC(=O)CNC(=O)[C@@H]1CCCN1C(=O)[C@H](C)NC(=O)[C@@H](N)Cc1ccccc1)C(=O)O
- staining of OT-I T cells by exchanged H-2K^b multimers [1]: No positive staining

SMILES: CC[C@H](C)[C@H](NC(=O)[C@@H](NC(=O)[C@@H](N)CO)[C@@H](C)CC)C(=O)N[C@@H](CC(N)=O)C(=O)N[C@@H](Cc1ccccc1)C(=O)N[C@@H](CCC(=O)O)C(=O)N[C@@H](CCCCN)C(=O)N[C@@H](CC(C)C)C(=O)O
- increase of exchange efficiency after 24 h (H-2K^b [2]; compared with 30 min): 15%
- time to almost complete exchange of FAPGNAPAL (H-2K^b [2]; room temperature (20° C.)): ≤ 30 min
- Efficiency of exchange (H-2K^b [3]; 0.5 μM H-2K^b monomer folded with FAPGNAPAL, 50 μM exchange peptide, PBS, 45 min room temperature): 105.5 ± 4.7 CYO
- Efficiency of exchange, monomer incubated in the absence of peptide (H-2K^b [3]; 0.5 μM H-2K^b monomer, no exchange peptide (—), label = peptide the monomer was folded with): 107.4 ± 12.6 CYO
- Kd (H-2K^b [4]): 1.4 nM
